From ChEMBL document CHEMBL1152560, “Substituted 2-arylbenzothiazoles as kinase inhibitors: hit-to-lead optimization” (Bioorg Med Chem, 2009)

The chains behind the UniProt entries cited, without tags or fusion partners.
UniProt P00533, whole entry: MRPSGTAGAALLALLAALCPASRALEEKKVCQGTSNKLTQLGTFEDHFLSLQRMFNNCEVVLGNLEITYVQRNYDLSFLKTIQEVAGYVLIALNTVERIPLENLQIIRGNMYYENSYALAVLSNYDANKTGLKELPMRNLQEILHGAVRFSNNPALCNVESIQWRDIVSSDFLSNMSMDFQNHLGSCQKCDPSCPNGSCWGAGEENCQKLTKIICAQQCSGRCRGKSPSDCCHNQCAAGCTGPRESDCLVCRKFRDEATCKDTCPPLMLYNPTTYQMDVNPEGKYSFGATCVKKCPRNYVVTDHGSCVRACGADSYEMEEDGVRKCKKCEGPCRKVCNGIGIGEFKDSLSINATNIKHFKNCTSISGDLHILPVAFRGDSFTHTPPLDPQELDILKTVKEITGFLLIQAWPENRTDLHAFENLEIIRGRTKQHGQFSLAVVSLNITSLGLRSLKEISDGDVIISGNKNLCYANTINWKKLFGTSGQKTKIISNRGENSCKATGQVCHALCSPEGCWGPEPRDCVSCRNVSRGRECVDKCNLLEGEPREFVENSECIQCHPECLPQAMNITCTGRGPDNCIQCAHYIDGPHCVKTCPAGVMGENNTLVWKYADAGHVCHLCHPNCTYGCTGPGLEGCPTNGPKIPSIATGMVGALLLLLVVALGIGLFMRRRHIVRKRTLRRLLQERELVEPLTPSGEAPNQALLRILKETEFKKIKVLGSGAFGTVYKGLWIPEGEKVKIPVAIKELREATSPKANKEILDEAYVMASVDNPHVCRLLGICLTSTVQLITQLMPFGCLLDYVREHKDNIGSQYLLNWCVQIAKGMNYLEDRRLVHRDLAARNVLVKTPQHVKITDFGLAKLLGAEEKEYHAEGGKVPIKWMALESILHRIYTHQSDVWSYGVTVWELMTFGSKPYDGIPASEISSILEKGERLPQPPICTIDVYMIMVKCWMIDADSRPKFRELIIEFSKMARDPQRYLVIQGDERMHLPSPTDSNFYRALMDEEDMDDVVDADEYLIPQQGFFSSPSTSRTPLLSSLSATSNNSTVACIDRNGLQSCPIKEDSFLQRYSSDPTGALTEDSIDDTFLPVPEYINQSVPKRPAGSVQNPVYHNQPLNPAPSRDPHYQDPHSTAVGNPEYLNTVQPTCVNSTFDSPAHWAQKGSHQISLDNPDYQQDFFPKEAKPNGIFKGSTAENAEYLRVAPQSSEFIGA

Target: Epidermal growth factor receptor (Homo sapiens, UniProt P00533)
Experiment: Inhibition of wild type EGF-R by microplate scintillation counting

An IC50 of 670 nM was found for `COc1cc2ncnc(Nc3ccc(-c4nc5ccccc5s4)cc3)c2cc1OCCCN1CCN(C)CC1` in this work.

An IC50 of 250 nM was found for `COc1cc2c(Nc3ccc(-c4nc5ccccc5s4)cc3C)ncnc2cc1OCCCN1CCN(C)CC1` in this work.
